Source: ChEMBL document CHEMBL1125721, “Highly selective kappa opioid analgesics. 4. Synthesis of some conformationally restricted naphthalene derivatives with high receptor affinity and selectivity” (1991)

Chains of the proteins cited; added tags and fusions are not shown.
UniProt P97266, whole entry: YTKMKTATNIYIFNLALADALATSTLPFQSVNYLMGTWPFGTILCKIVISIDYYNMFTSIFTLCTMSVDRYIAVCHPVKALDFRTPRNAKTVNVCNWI

Target: Mu-type opioid receptor (Cavia porcellus) (UniProt P97266)
Assay: Ratio measured as the Ki(kappa) to that of Ki(mu) values.

CN(C(=O)Cc1cccc2occc12)[C@H]1CCC2(CCCO2)C[C@@H]1N1CCCC1 (stereo partly specified)
Ratio: 1520
